The record followed here is ChEMBL document CHEMBL5518194, “An 19F NMR fragment-based approach for the discovery and development of BRCA2-RAD51 inhibitors to pursuit synthetic lethality in combination with PARP inhibition in pancreatic cancer” (Eur J Med Chem, 2024).

One data set can be described thus: in vitro. Particulars: human, H6037 cells.
The next data set can be described thus: physchem. The settings on record: PBS, pH 7.4.

Bounds are passed on as bounds.

As a reminder, the inhibition is how much of the control response was suppressed. Read a high inhibition as strong suppression. The solubility (kinetic) is the concentration staying in solution when a stock, usually in DMSO, is diluted into the medium. In the data set “in vitro”, `O=c1cc(-c2cccc(Br)c2)[nH]c2cc(C(F)(F)F)nn12` returned an inhibition at 144 h, 30 µM of no more than 20%. The kinetic solubility at 24 h in “physchem” is greater than 250 µM.
